Values quoted from earlier work as cited in PubChem BioAssay AID977611 (Shanghai Institute of Organic Chemistry, 2014).
pKd: −log10 of the molar value.

Experiments:
Assay in all cases: PubChem AID 977611
beta-glucosidase a = settings: PDB protein-ligand complexes, literature Kd; protein: beta-glucosidase a; PDB entry 2CBU
[1] = molecular target: CATIONIC TRYPSIN(residue 21-243); settings: PDB protein-ligand complexes, literature Kd; protein: CATIONIC TRYPSIN(residue 21-243); PDB entry 2J9N
[2] = molecular target: sialic acid binding protein hi0146; settings: PDB protein-ligand complexes, literature Kd; protein: sialic acid binding protein hi0146; PDB entry 2CEX
Rice GID1 = settings: PDB protein-ligand complexes, literature Kd; protein: Rice GID1; PDB entry 3EBL
[3] = molecular target: glutathione s-transferase 28 kda; settings: PDB protein-ligand complexes, literature Kd; protein: glutathione s-transferase 28 kda; PDB entry 2CA8

Structure (SMILES): O[C@H]1[C@H](O)[C@@H](O)CN2CC[C@H](O)[C@H]12
- pKd (beta-glucosidase a): 5.68

Structure (SMILES): N=C(N)c1ccccc1
- pKd [1]: 4.70

Structure (SMILES): CC(=O)N[C@H]1[C@H]([C@H](O)[C@H](O)CO)OC(C(=O)O)=C[C@@H]1O
- pKd [2]: 4.70

Structure (SMILES): C=C1C[C@]23C[C@H]1CC[C@H]2[C@@]12CC[C@H](O)[C@@](C)(C(=O)O1)[C@H]2[C@@H]3C(=O)O
- pKd (Rice GID1): 6.30

Structure (SMILES): N[C@H](CCC(=O)N[C@@H](CS)C(=O)NCC(=O)O)C(=O)O
- pKd [3]: 4.66
